Source: PubChem (National Center for Advancing Translational Sciences (NCATS))
Sampled rows, rich in hits. Any-hit rate of the full collection: about 16%.
TDP1 cell noCPT: qHTS for Inhibitors of human tyrosyl-DNA phosphodiesterase 1 (TDP1): qHTS in cells in absence of CPT | DT40 Tdp1-/- hTDP1 cells, no CPT, ATP luminescence, 48 h | Potency, µM (top dose mostly 46.2 µM), for inactives: top-dose activity change, negative = growth inhibition, usual class: inhibitors | 420,000 tested, 15% active; further: potency means the concentration at half of the fitted maximal effect; on the % scale 0 is the no-effect control and ±100 the full control effect; nearly all actives have a fitted effect of over 55% in size
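Chicken DT40 Tdp1-/- cells complemented with human TDP1, screened without camptothecin (DMSO vehicle only), 400 cells/well. Compounds pin-transferred, cells incubated at 37 °C for at least 48 hr. Growth read as ATP-dependent luminescence (CellTiter-Glo, 30 min at RT).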
TDP1 cell CPT: DT40-hTDP1 cell growth loss with CPT; chicken DT40 Tdp1-/-;hTDP1 cells + 20 nM CPT, ATP luminescence, 48 h; Potency, µM (highest dose often 46.2 µM), for inactives: at the highest dose activity change, negative = growth inhibition, hits mostly inhibitors; 420,000 tested, 12% active; further: potency means the concentration at half of the fitted maximal effect; on the % scale 0 is the no-effect control and ±100 the full control effect; nearly all actives have a fitted effect of over 55% in size
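Cell growth measured by CellTiter-Glo luminescence after a minimum 48 h, 37 C compound exposure with 20 nM CPT in Tdp1-knockout DT40 cells stably expressing hTDP1, seeded 400/well; qHTS titration format.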
miR-21 reporter: miR-21 reporter, rising signal | HeLa miR-21 FLuc reporter, luciferase, 48 h | Potency, µM (highest dose often 38.3 µM), for inactives: at the top dose reporter change, positive = more light | 340,000 tested, under 10 active | AID 2288; active = well fitted rising curve with a large enough effect; inconclusive = small, poorly fitted or top-dose-only effect; inactive = no such curve, though single readings can be large or run the other way;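 further: % of control where 0% means no effect; miR-21 action dims this reporter so a rising signal means less miR-21 action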
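Compounds were titrated across several concentrations (up to approximately 40 uM) and incubated 48 hours with HeLa miR-21-FLuc reporter cells (miR-21 target sequence downstream of FLuc, endogenous miR-21). Readout was firefly luciferase luminescence after lytic detection reagent.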
TDP1 block: blocks human tyrosyl-DNA phosphodiesterase 1 | Q9NUW8 | recombinant TDP1, AlphaScreen DNA substrate cleavage | Potency, µM (titrated, usually from 130 µM), for inactives: at the highest dose activity change, negative = inhibition, usual class: inhibitors | 350,000 tested, 0.28% active | AID 485290; further: potency means the concentration at half of the fitted maximal effect; on the % scale 0 is the no-effect control and ±100 the full control effect; nearly all actives have a fitted effect of over 40% in size
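Tdp1 1 nM final; 15 min RT w/ cpd; substrate 15 nM, 5 min; beads 10 ug/ml, 10 min; AlphaScreen read. Neg ctrl: no enzyme.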
uPA generation: inhibitors of cell surface uPA generation; cell surface uPA generation assay, qHTS; Potency, µM (doses to about 38.3 µM), without a hit: at the highest dose activity change, negative = inhibition, actives largely listed as inhibitors; 330,000 tested, 0.31% active; active means well fitted inhibition curve with a large enough effect; inconclusive means small, poorly fitted or top-dose-only effect; inactive means no such curve, though single readings can be large or run the other way; tested in mouse RAW 264.7 cells; further: potency means the concentration at half of the fitted maximal effect; on the % scale 0 is the no-effect control and ±100 the full control effect; nearly all actives have a fitted effect of over 55% in size
Numbers without * were called inactive; ? = inconclusive; . = no result given. Unless noted, the call rests on the fitted dose curve; in most records, active means well fitted curve in the direction sought with a large enough effect; inconclusive means small, poorly fitted or top-dose-only effect, or another doubt; inactive means no such curve, though single readings can be large; an effect the other way counts as inactive or inconclusive.

Assay codes: A = TDP1 cell noCPT; B = TDP1 cell CPT; C = miR-21 reporter; D = TDP1 block; E = uPA generation
COc1cccc(-c2nc(-c3ccc(NC(=O)c4ccncc4)cc3)no2)c1
  A: 10µM*; B: 9.2µM*; C: 0%; D: -6%; E: 4%
COc1ccc(Cl)cc1-c1nc(-c2ccc(NC(=O)c3ccncc3)cc2)no1
  A: 10µM*; B: ?; C: .; D: .; E: 1%
COc1ccc(-c2nc(-c3ccc(NC(=O)c4ccncc4)cc3)no2)cc1OC
  A: 7.3µM*; B: 5.2µM*; C: 10%; D: 0%; E: -24%
COc1ccc(Cc2nc(-c3ccc(NC(=O)c4cccnc4)cc3)no2)cc1
  A: 6.5µM*; B: 5.8µM*; C: 1%; D: 1%; E: -7%
COc1cccc(NC(=O)c2ccccc2-c2nc(-c3ccc(Cl)cc3)no2)c1
  A: ?; B: 3%; C: -9%; D: 3%; E: 9%
CC1C/C(=N/O)C(C)CN1 (centres undefined)
  A: -3%; B: 19%; C: -5%; D: 4%; E: 1%
CC(C)(C)c1ccc(NC(=O)COC(=O)c2ccc(NS(=O)(=O)c3ccc(F)c(F)c3)cc2)cc1
  A: ?; B: -21%; C: -21%; D: -1%; E: -3%
COc1cccc(-c2cc(C(=O)Nc3ccc(F)cc3)[nH]n2)c1
  A: 16µM*; B: ?; C: -48%; D: 3%; E: .
COc1cccc(-c2cc(C(=O)O)[nH]n2)c1
  A: -4%; B: 9%; C: -3%; D: 0%; E: 6%
Cc1cccc(Nc2ncnc3ccccc23)c1
  A: ?; B: -26%; C: -25%; D: 1%; E: -1%
O=C(Cn1[nH]c(=O)c2ccccc2c1=O)Nc1cccc(S(=O)(=O)N2CCCCCC2)c1
  A: ?; B: -7%; C: -2%; D: 7%; E: 2%
Cc1ncoc1C(=O)NC1CCCc2c1cnn2-c1cc(F)cc(F)c1 (centres undefined)
  A: 26µM*; B: -29%; C: .; D: .; E: .
CCn1nc(C)cc1C(=O)NC1CCCc2c1cnn2-c1cc(F)cc(F)c1 (centres undefined)
  A: 18µM*; B: ?; C: 9%; D: 2%; E: ?
CC(C)(C)c1ccc(-n2ncc3c2CCCC3NC(=O)CN2CCOC2=O)cc1 (centres undefined)
  A: 16µM*; B: 18µM*; C: 6%; D: 4%; E: -7%
CC(C)(C)c1ccc(-n2ncc3c2CCCC3NC(=O)c2ccncc2)cc1 (centres undefined)
  A: 10µM*; B: 12µM*; C: .; D: .; E: 6%
Cc1nc2nc(SCC(=O)O)nn2c(C)c1Cc1c(F)cccc1Cl
  A: 5%; B: 5%; C: -2%; D: 0%; E: 2%
Cc1ncoc1C(=O)NC1CCCc2c1cnn2-c1ccc(C(C)(C)C)cc1 (centres undefined)
  A: 7.3µM*; B: 7.3µM*; C: 21%; D: 6%; E: ?
CC(C)(C)c1ccc(-n2ncc3c2CCCC3NC(=O)CCC2=NNC(=O)CC2)cc1 (centres undefined)
  A: 3.3µM*; B: 9.2µM*; C: .; D: .; E: .
Cc1cc(C)c(C(=O)NC2CCCc3c2cnn3-c2ccc(C)c(C)c2)c(=O)[nH]1 (centres undefined)
  A: -12%; B: -12%; C: -10%; D: 2%; E: 3%
Cc1cc(C(=O)NC2CCCc3c2cnn3-c2ccc(C(C)(C)C)cc2)n[nH]1 (centres undefined)
  A: 12µM*; B: 21µM*; C: 7%; D: 2%; E: ?
Cc1ccccc1-n1ncc2c1CC(C)(C)CC2NC(=O)CCC1=NNC(=O)CC1 (centres undefined)
  A: 3%; B: 1%; C: -1%; D: 5%; E: -3%
COc1ccc(-c2nnc3cccc(Cl)n23)c(OC)c1
  A: -3%; B: 0%; C: -8%; D: .; E: 3%
COC(=O)[C@@]1(Cc2ccc(F)cc2)[C@H]2c3cc(C(=O)N4CCCC4)n(CCc4ccc(O)c(O)c4)c3C[C@H]2CN1C(=O)c1ccccc1
  A: .; B: .; C: 4%; D: 4%; E: .
COC(=O)[C@@]1(Cc2ccc(F)cc2)[C@H]2c3cc(C(=O)N4CCCC4)n(Cc4ccc(Cl)c(C(F)(F)F)c4)c3C[C@H]2CN1C(=O)c1ccccc1
  A: 21µM*; B: 21µM*; C: .; D: 12%; E: .
COC(=O)[C@@]1(Cc2ccc(OC)cc2)[C@H]2c3cc(C(=O)N4CCCC4)n(CCc4ccc(OC)c(Br)c4)c3C[C@H]2CN1C(=O)c1ccccc1
  A: 21µM*; B: 15µM*; C: .; D: 10%; E: .

Record cards, from the list above:
COC(=O)[C@@]1(Cc2ccc(OC)cc2)[C@H]2c3cc(C(=O)N4CCCC4)n(CCc4ccc(OC)c(Br)c4)c3C[C@H]2CN1C(=O)c1ccccc1 reads TDP1 cell noCPT = 21µM*; TDP1 cell CPT = 15µM*; miR-21 reporter = .; TDP1 block = 10%; uPA generation = .
CC(C)(C)c1ccc(-n2ncc3c2CCCC3NC(=O)CCC2=NNC(=O)CC2)cc1 (centres undefined) reads TDP1 cell noCPT = 3.3µM*; TDP1 cell CPT = 9.2µM*; miR-21 reporter = .; TDP1 block = .; uPA generation = .
